Patent US20090209525A1, “ENABLING METHODS TO IDENTIFY ALLOSTERIC MODULATORS OF RECEPTOR ACTIVITY” (priority 2006, published 2009)

By UniProt entry, the sequences of proteins in these tests, tags left out.
UniProt P08482, whole entry W101A: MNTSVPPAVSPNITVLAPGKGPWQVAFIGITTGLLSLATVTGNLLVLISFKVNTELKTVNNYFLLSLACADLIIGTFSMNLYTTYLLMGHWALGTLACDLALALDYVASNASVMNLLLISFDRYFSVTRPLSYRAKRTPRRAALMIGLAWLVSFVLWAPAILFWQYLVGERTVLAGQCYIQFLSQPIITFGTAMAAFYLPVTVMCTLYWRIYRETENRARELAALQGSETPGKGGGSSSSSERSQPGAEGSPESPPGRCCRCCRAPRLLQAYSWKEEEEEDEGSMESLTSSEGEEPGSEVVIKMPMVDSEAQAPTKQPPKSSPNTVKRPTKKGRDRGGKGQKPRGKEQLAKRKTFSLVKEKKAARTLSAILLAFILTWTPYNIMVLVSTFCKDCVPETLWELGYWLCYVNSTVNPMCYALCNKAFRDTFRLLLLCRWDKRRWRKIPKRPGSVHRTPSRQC
UniProt P08482, whole entry S109A: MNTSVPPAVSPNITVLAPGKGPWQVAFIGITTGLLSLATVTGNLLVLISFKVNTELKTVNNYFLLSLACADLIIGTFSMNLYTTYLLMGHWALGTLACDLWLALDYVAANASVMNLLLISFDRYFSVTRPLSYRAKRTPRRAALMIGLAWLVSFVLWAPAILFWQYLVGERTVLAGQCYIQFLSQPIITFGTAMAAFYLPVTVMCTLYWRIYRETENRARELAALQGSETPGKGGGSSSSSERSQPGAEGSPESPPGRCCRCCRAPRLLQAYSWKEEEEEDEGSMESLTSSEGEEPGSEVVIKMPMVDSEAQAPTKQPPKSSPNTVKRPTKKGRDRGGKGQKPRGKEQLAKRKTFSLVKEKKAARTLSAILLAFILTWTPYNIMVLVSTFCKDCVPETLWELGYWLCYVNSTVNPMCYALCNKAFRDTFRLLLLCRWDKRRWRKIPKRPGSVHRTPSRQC
UniProt P08482, whole entry L102A: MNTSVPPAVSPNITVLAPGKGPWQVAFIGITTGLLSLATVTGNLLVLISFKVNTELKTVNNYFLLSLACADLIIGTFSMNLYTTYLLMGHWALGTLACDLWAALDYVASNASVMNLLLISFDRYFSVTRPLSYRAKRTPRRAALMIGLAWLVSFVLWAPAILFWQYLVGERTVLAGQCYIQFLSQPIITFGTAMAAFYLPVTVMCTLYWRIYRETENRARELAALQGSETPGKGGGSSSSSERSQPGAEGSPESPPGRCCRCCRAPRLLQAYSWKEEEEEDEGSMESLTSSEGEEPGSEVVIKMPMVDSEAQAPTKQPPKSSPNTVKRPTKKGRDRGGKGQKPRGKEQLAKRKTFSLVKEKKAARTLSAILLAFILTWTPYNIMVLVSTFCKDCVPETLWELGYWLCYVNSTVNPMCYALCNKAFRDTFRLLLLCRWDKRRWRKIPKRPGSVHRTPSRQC
UniProt P08482, whole entry Y106A: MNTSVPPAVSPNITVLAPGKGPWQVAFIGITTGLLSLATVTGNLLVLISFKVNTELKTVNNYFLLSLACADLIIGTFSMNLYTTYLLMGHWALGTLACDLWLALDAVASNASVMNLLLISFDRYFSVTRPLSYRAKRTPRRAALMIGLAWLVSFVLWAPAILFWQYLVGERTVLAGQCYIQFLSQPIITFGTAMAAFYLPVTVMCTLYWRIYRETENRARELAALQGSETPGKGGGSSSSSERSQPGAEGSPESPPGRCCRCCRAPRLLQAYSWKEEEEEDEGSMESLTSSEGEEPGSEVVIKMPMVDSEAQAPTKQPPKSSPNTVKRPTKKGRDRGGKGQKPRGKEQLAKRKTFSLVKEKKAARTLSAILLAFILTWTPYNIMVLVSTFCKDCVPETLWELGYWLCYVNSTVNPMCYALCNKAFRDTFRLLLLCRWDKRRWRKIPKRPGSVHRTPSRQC
UniProt P08482, whole entry D105A: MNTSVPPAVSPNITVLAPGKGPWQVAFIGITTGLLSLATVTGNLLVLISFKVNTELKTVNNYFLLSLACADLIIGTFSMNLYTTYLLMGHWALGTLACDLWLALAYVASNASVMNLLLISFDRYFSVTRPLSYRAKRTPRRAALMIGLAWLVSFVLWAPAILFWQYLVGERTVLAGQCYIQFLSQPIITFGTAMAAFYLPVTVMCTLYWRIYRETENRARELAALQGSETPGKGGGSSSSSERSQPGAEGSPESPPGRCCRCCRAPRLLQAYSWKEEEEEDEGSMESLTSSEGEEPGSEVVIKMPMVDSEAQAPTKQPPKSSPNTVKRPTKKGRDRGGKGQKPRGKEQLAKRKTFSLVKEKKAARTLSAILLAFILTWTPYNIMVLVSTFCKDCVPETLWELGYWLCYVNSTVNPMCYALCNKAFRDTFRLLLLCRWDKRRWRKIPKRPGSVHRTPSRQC
UniProt P08482, whole entry Y381A: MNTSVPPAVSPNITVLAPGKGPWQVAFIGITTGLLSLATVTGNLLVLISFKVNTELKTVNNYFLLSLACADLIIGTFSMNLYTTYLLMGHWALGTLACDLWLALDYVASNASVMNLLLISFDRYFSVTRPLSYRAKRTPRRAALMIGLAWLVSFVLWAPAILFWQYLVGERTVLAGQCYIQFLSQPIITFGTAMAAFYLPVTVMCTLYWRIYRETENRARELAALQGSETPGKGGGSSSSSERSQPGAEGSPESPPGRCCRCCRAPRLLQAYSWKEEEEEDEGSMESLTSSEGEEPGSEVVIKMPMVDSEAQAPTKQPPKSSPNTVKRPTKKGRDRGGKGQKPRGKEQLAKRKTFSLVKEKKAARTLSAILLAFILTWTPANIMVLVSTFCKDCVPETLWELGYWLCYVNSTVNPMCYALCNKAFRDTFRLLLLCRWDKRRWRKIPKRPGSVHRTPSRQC

How the values were obtained:
[1] = biological target: T1, rat M1 W101A receptor (Rattus norvegicus, UniProt P08482, W101A); experiment: R-SAT functional assay, W101A mutant
[2] = biological target: T2, rat M1 wild-type receptors (Rattus norvegicus, UniProt P08482); experiment: R-SAT functional assay, wild-type receptor
[3] = biological target: T3, rat M1 S109A receptor (Rattus norvegicus, UniProt P08482, S109A); experiment: Phosphatidyl inositol hydrolysis assay, S109A; format: cell-based; details: Table 6, PI hydrolysis, relative to wild-type response to that ligand
T3 construct: expressed in transfected cells

[4] = biological target: T1, rat M1 W101A receptor; experiment: Phosphatidyl inositol hydrolysis assay, W101A; details: Table 6, PI hydrolysis, relative to wild-type response to that ligand (clozapine: title says fold-response)
[5] = biological target: T4, rat M1 L102A receptor (Rattus norvegicus, UniProt P08482, L102A); experiment: R-SAT functional assay, L102A mutant; format: cell-based
T4 construct: expressed in transfected cells; host or cells: NIH-3T3

[6] = biological target: T5, rat M1 Y106A receptor (Rattus norvegicus, UniProt P08482, Y106A); experiment: Phosphatidyl inositol hydrolysis assay, Y106A; details: Table 6, PI hydrolysis, relative to wild-type response to that ligand (clozapine: title says fold-response)
[7] = biological target: T5, rat M1 Y106A receptor; experiment: R-SAT functional assay, Y106A mutant; format: cell-based; design: expressed in transfected cells
[8] = biological target: T3, rat M1 S109A receptor; experiment: R-SAT functional assay, S109A mutant; format: cell-based
[9] = biological target: T6, rat M1 D105A receptor (Rattus norvegicus, UniProt P08482, D105A); experiment: R-SAT functional assay, D105A mutant; format: cell-based
T6 construct: expressed in transfected cells; host or cells: NIH-3T3

[10] = biological target: T2, rat M1 wild-type receptors; experiment: Phosphatidyl inositol hydrolysis assay, wild-type; format: cell-based; design: expressed in transfected cells; details: PI hydrolysis
[11] = biological target: rat M1 Y381A receptor (Rattus norvegicus, UniProt P08482, Y381A); experiment: R-SAT functional assay, Y381A mutant; details: pEC50, Table 4
[12] = read-out: basal activity decreased by atropine, % of maximal response to carbachol

SMILES: CN1[C@@H]2CC[C@H]1C[C@@H](OC(=O)C(CO)c1ccccc1)C2 (stereo partly drawn) [Atropine]
Emax at 0.5 µM [1, 12]: 6% | Emax at 0.5 µM [2, 12]: 7%

Eff (%) [3]: >100 ± — % | Eff (%) [4]: >75 ± — % | Eff (%) [5]: >30 ± — % | Eff (%) [6]: no resp. | Eff (%) [1]: >80 ± — % | Eff (%) [7]: no resp. | % Eff [2]: 84% and 97% | Eff (%) [2]: 100 ± 0% and 100 ± 9% | Eff (%) [8]: >65 ± — % | Eff (%) [9]: no resp. | Eff (%) ([10]; Table 5, maximum response relative to carbachol): 100 ± 0% | Eff (%) ([10]; Table 6, M1 WT, maximum response, normalized): 100 ± 4%
SMILES: C[N+](C)(C)CCOC(N)=O.[Cl-] [Carbachol, carbamylcholine]
maximum response over baseline ([10]; wild-type, typical value): carbachol, which was typically 3.3-fold over baseline.

EC50 ([1]; pEC50, Table 4, M1 W101A): 126 nM | EC50 ([2]; pEC50, Table 4, M1 wild type): 50.1 nM | EC50 [11]: 398 nM
SMILES: CCCCCCOc1nsnc1C1=CCCN(C)C1 [Xanomeline]

Values joined by “and” are separate entries in the source; they are usually repeats but may differ in a detail not shown here. Identical values can stand only once. One block for each molecule: values may come before it.
